Literature values in patent US20120083599A1 (UNIVERSITY OF NOTTINGHAM, priority 2009, published 2012).

Chains of the proteins cited; added tags and fusions are not shown. Residues count along the entry.
UniProt P02701, 25-152, species assumed: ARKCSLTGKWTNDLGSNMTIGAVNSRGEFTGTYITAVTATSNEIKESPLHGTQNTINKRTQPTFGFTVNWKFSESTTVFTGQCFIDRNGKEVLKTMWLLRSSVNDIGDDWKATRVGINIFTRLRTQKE

Molecular target: avidin (Gallus gallus, UniProt P02701)
Conditions: literature values; cited from earlier work

## N=C1N[C@H]2[C@H](CS[C@H]2CCCCC(=O)O)N1 [iminobiotin, Iminobiotin]
  Kd: ~0.01 nM
